Laboratory results as given in ChEMBL document CHEMBL2203183, “Synthesis of N-phenyl-N-(3-(piperidin-1-yl)propyl)benzofuran-2-carboxamides as new selective ligands for sigma receptors” (Bioorg Med Chem, 2012).

Chains of the proteins cited; added tags and fusions are not shown.
UniProt P08913, whole entry: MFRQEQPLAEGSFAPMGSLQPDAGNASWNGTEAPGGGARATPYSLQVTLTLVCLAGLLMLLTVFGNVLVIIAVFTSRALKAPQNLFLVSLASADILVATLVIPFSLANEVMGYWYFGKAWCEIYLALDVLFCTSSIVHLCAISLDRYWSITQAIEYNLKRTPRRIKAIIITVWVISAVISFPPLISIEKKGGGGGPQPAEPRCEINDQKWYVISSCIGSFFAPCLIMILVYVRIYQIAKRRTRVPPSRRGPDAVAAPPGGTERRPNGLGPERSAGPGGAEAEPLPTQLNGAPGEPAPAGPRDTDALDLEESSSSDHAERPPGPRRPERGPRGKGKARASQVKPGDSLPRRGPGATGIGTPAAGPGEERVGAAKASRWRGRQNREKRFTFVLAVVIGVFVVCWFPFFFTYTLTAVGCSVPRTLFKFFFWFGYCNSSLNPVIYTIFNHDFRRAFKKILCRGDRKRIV
UniProt Q9R0C9, whole entry: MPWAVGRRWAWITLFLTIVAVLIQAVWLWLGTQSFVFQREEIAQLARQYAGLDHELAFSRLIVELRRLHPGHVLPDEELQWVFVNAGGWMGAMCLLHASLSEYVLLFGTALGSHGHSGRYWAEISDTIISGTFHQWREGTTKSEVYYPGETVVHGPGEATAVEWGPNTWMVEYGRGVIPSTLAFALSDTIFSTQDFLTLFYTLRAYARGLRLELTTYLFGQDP
UniProt P35462, whole entry: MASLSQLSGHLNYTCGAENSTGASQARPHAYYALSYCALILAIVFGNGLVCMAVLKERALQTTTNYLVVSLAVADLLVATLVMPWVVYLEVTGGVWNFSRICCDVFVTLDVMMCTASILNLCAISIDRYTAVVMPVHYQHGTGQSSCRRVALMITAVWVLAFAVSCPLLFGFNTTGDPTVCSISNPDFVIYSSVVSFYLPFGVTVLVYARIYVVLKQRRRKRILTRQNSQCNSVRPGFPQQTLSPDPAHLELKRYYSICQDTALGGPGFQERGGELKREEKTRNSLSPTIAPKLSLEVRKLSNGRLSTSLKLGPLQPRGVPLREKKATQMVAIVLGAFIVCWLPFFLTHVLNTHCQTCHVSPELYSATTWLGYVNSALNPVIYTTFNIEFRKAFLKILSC

Legend:
[1] = target: Alpha-2A adrenergic receptor (Homo sapiens) (UniProt P08913); experiment: Displacement of [3H]clonidine from alpha2A adrenergic receptor at 10 uM after 40 mins by scintillation counting analysis
Summary of the method: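 NIMH-PDSP primary screen using membranes from transiently or stably transfected cell lines (e.g., HEK293, COS, CHO, NIH3T3). Compound at 10 μM final. Reference compounds: chlorpromazine (5-HT2A), methysergide (5-HT2B), LY278584 (5-HT3), oxymetazoline (α2A), prazosin (α2C), atropine (M4). Mean % inhibition of radioligand specific binding, N = 4.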

[2] = target: Sigma non-opioid intracellular receptor 1 (Rattus norvegicus) (UniProt Q9R0C9); experiment: Displacement of [3H](+)-pentazocine from sigma 1 receptor in rat brain membrane at 10 uM after 2.5 hrs by scintillation counting; format: cell membranes
PC-12 = experiment: Selectivity ratio of Ki for sigma 2 receptor in rat PC12 cell membrane to Ki for sigma 1 receptor in rat brain membrane; format: cell-based
Summary of the method: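 Sigma-1: rat brain membranes, 3 nM [3H]pentazocine, 37 °C, 2.5 h. Sigma-2: PC12 homogenate, 1 nM [3H]DTG, room temperature, 2 h. […] Filtration and scintillation counting; IC50 from logistic fit converted to Ki by Cheng-Prusoff. Ratio is sigma-2 Ki over sigma-1 Ki.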

[3] = target: D(3) dopamine receptor (Homo sapiens) (UniProt P35462); experiment: Displacement of [3H]N-methylspiperone from dopamine D3 receptor at 10 uM after 1.5 hrs by scintillation counting analysis

SMILES | inhibition [1] [%] | inhibition [2] [%] | Ratio Ki (PC-12) | inhibition [3] [%]
COc1cc2oc(C(=O)N(CCCN3CCCCC3)c3ccccc3)c(C)c2cc1OC | 55.2 |  |  | 
Cc1c(C(=O)N(CCCN2CCCCC2)c2ccccc2)oc2ccccc12 |  | 101 | 2 | 60.6
